pKi: −log10 of the molar value.

Protein sequences, listed by entry. Tags and fused reporters are not part of them.
UniProt P41145, whole entry: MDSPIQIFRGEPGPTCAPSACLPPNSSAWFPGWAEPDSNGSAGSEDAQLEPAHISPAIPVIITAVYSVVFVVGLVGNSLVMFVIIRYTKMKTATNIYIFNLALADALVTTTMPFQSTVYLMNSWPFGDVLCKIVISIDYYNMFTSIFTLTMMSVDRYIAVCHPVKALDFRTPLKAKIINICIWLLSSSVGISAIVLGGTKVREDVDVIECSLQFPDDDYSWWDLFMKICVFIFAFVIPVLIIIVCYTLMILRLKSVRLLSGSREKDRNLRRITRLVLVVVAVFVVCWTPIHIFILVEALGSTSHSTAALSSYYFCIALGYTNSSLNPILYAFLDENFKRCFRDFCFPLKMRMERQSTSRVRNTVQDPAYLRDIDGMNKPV
UniProt P35372, whole entry: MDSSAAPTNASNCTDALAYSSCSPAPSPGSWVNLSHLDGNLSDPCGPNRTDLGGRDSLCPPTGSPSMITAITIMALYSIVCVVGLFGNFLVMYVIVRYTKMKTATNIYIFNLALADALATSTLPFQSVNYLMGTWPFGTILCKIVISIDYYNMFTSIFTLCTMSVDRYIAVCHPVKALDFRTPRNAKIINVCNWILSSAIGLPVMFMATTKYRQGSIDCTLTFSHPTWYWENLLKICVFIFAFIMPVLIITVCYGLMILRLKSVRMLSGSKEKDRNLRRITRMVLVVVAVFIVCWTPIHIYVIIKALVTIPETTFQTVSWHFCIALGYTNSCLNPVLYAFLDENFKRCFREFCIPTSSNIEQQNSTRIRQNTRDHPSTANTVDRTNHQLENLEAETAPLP
UniProt P41143, whole entry: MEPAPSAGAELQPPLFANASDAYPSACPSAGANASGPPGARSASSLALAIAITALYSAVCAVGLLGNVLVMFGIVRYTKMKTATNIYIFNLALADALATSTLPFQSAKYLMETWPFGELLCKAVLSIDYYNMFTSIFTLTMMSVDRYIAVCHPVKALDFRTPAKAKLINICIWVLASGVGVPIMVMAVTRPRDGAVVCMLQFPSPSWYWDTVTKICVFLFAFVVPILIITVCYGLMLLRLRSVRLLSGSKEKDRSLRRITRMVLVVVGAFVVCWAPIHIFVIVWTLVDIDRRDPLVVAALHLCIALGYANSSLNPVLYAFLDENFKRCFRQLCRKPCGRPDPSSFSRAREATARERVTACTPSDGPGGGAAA

What all share (assay): Radioligand Dose-Displacement Binding Assay
Holding throughout (details): pH 7.4

In assay [1] the target is Kappa-type opioid receptor (Homo sapiens, UniProt P41145).
A further assay concerns the target Mu-type opioid receptor (Homo sapiens, UniProt P35372).
The target in assay [2] is Delta-type opioid receptor (Homo sapiens, UniProt P41143).

As to `CO[C@]12CC[C@@]3(C[C@@H]1COCc1ccc(C)cc1)[C@H]1Cc4ccc(O)c5c4[C@@]3(CC[N+]1(C)CC1CC1)[C@H]2O5` (some centres undefined), the pKi (in general, the Ki on a negative log10 scale, so that one unit is a factor of ten) in assay [1] is 8.97; at Mu-type opioid receptor, 8.87.
In assay [1], `CO[C@]12CC[C@@]3(C[C@@H]1COCc1cccc(F)c1)[C@H]1Cc4ccc(O)c5c4[C@@]3(CC[N+]1(C)CC1CC1)[C@H]2O5` (some centres undefined) showed a pKi of 9.60.
On to `CO[C@]12CC[C@@]3(C[C@@H]1COCc1ccccc1)[C@H]1Cc4ccc(O)c5c4[C@@]3(CC[N+]1(C)CC1CC1)[C@H]2O5` (some centres undefined), for which the pKi in assay [1] is 9.26; on Mu-type opioid receptor, 8.68.
As for `CO[C@]12CC[C@@]3(C[C@@H]1COCc1cccc(Cl)c1)[C@H]1Cc4ccc(O)c5c4[C@@]3(CC[N+]1(C)CC1CC1)[C@H]2O5` (some centres undefined), the pKi in assay [1] was 9.57.
For the compound `CO[C@]12CC[C@@]3(C[C@@H]1COCc1cccc(C)c1)[C@H]1Cc4ccc(O)c5c4[C@@]3(CC[N+]1(C)CC1CC1)[C@H]2O5` (some centres undefined), the values for the pKi (in assay [1]; at Mu-type opioid receptor) were 9.54 and 8.37, respectively.
With `CO[C@]12CC[C@@]3(C[C@@H]1COCc1cc4ccccc4s1)[C@H]1Cc4ccc(O)c5c4[C@@]3(CC[N+]1(C)CC1CC1)[C@H]2O5` (some centres undefined), the pKi is 7.34 in assay [2], 9.11 in assay [1] and 8.64 on Mu-type opioid receptor.
On Mu-type opioid receptor, `CO[C@]12CC[C@@]3(C[C@@H]1COCc1ccccc1F)[C@H]1Cc4ccc(O)c5c4[C@@]3(CC[N+]1(C)CC1CC1)[C@H]2O5` (some centres undefined) showed a pKi of 8.35.
For `CO[C@]12CC[C@@]3(C[C@@H]1COCc1ccc(F)cc1)[C@H]1Cc4ccc(O)c5c4[C@@]3(CC[N+]1(C)CC1CC1)[C@H]2O5` (some centres undefined), the pKi in assay [1] is 9.59; on Mu-type opioid receptor it was 8.02.

Source of the values: BindingDB's records for US9096606.
